Measured values: patent US8987312B2, “Alpha-keto heterocycles as FAAH inhibitors” (The Scripps Research Institute, priority 2008, dated 2015)
pKi: −log10 of the molar value. Read-outs that look alike come from different tables or passages of the source.

By UniProt entry, the sequences of proteins in these tests, tags left out. Residues count along the entry.
UniProt P97612, 30-579 limits assumed: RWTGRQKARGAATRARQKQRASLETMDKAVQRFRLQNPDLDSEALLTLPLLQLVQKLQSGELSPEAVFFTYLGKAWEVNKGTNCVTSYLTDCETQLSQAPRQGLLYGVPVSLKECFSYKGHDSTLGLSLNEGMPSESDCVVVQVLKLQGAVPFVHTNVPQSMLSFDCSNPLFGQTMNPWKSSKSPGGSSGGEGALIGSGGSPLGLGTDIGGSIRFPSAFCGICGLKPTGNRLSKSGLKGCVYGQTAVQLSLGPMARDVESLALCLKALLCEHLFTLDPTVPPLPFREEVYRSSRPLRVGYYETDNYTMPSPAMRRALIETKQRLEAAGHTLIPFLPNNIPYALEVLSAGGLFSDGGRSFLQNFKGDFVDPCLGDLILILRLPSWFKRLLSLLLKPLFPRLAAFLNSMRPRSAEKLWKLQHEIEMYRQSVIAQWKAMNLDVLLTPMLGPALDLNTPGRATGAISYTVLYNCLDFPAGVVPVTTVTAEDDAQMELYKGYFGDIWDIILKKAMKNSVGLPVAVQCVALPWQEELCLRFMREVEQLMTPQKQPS

Molecular target: T1, purified recombinant rat FAAH (Rattus norvegicus, UniProt P97612)
T1 construct: The truncated rat FAAH (rFAAH) was expressed in E. coli and purified as described; made in house; host or cells: Escherichia coli
Assay: FAAH inhibition enzyme assay (14C-oleamide hydrolysis, Dixon plot), rat enzyme
Format: biochemical
Conditions: for Ki: Table 3, read-out: Ki, μM (rat)

[1] = Table 2, rat FAAH, pH 9 assay conditions, read-out: Ki

Compound | pKi [1] | pKi (Table 4, read-out: FAAH Ki) | Ki (rat FAAH) [µM] | pKi (rat FAAH, pH 9, read-out: Ki)
O=C(O)c1cccc(-c2nnc(C(=O)CCCCCCc3ccccc3)o2)n1 [8g] | 7.85 | 7.85 | 0.014 | –
COC(=O)c1nnc(C(=O)CCCCCCc2ccccc2)o1 [8h, Methyl 5-(7-Phenylheptanoyl)-1,3,4-oxadiazole-2-carboxylate] | – | 9.00 | – | > 8.00
O=C(O)c1cccc(-c2noc(C(=O)CCCCCCc3ccccc3)n2)n1 [9g, 6-(5-(7-Phenylheptanoyl)-1,2,4-oxadiazol-3-yl)-picolinic Acid] | 7.89 | 7.89 | – | –
COC(=O)c1cccc(-c2nc(C(=O)CCCCCCc3ccccc3)no2)n1 [10f, Methyl 6-(3-(7-Phenylheptanoyl)-1,2,4-oxadiazol-5-yl)-picolinate] | 8.15 | 8.15 | – | –
O=C(O)c1cccc(-c2cnc(C(=O)CCCCCCc3ccccc3)s2)n1 [11g, 6-(2-(7-Phenylheptanoyl)thiazol-5-yl)-picolinic Acid] | 5.00 | 5.00 | – | –
COC(=O)c1cccc(-c2nnc(C(=O)CCCCCCc3ccccc3)s2)n1 [12f, Methyl 6-(5-(7-Phenylheptanoyl)-1,3,4-thiadiazol-2-yl)-picolinate] | 8.11 | 8.11 | – | –
O=C(O)c1cccc(-c2nnc(C(=O)CCCCCCc3ccccc3)s2)n1 [12g, 6-(5-(7-Phenylheptanoyl)-1,3,4-thiadiazol-2-yl)-picolinic Acid] | 7.30 | – | – | –
COC(=O)c1nnc(C(=O)CCCCCCc2ccccc2)s1 [12h, Methyl 5-(7-Phenylheptanoyl)-1,3,4-thiadiazole-2-carboxylate] | – | 9.00 | – | > 8.00

Second part, the compound after the results:

pKi [1] | pKi (Table 4, read-out: FAAH Ki) | Ki (rat FAAH) [µM] | pKi (rat FAAH, pH 9, read-out: Ki) | Compound
7.10 | 7.10 | – | – | O=C(CCCCCCc1ccccc1)c1ncc(-c2ccccc2)o1 [7e]
7.62 | 7.62 | – | – | O=C(CCCCCCc1ccccc1)c1ncc(-c2ccccn2)s1 [11b, 7-Phenyl-1-(5-(pyridin-2-yl)-thiazol-2-yl)-heptan-1-one]
7.60 | 7.60 | – | – | O=C(CCCCCCc1ccccc1)c1ccc(-c2ccccn2)nn1 [13b, 7-Phenyl-1-(6-(pyridin-2-yl)-pyridazin-3-yl)-heptan-1-one]
6.44 | 6.44 | – | – | O=C(O)c1cccc(-c2ccc(C(=O)CCCCCCc3ccccc3)nn2)n1 [13g, 6-(6-(7-Phenylheptanoyl)-pyridazin-3-yl)-picolinic Acid]
8.96 | 8.96 | 0.0011 | – | O=C(CCCCCCc1ccccc1)c1nnn(-c2ccccn2)n1 [15b, 7-Phenyl-1-(2-(pyridin-2-yl)-2H-tetrazol-5-yl)-heptan-1-one]
